Compounds with a hit are over-represented: about 0.48% of the library has one in this group of screens.
EPAC1 antag: antagonists of human EPAC1; O95398; EPAC1 GEF assay, Rap1b-BODIPY-GDP exchange fluorescence; Potency, µM (top dose mostly 115 µM), without a hit: at the highest dose activity change, negative = inhibition, usual class: inhibitors; 360,000 compounds, 0.14% hits; AID 720709;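 further: plate controls were vehicle for no effect and positive control for full effect; nearly all actives have a fitted effect of over 50% in size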
Rango complex inh: Rango-importin beta binding inhibition; AID 540263; Potency, µM (top dose mostly 92.2 µM), for the others: top-dose inhibition of complex formation; Rango CFP/YFP FRET sensor + importin beta, 45 min; 340,000 compounds, 0.031% hits; calls by dose curve;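 further: 0% = DMSO wells and 100% = buffer wells lacking importin beta; nearly all actives have a fitted effect of over 15% in size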
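FRET biosensor (snurportin 1 IBB flanked by EYFP and cerulean), 50 nM, with compound 5 min, then 0.125 microM importin beta in PBS, 1 mM DTT, 0.02% Tween-20, 0.1% BSA. CFP/YFP ratio read after 45 min at room temperature; pre-read flags interference.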
Rango release inh: inhibitors of RanGTP-induced Rango-importin beta complex dissociation | O95149+P62826 | Biochemical FRET Rango-importin beta, RanGTP-induced dissociation | Potency, µM (titrated, usually from 46.1 µM), inactives show at the highest dose activity change, negative = inhibition | 340,000 compounds, 0.071% hits; calls by dose curve; further: % of control where 0% means no effect; nearly all actives have a fitted effect of over 45% in size
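Compounds preincubate 5 min with complex of recombinant Rango and importin beta in PBS with 1 mM DTT. Ran (0.6 uM) loaded with 2 mM GTP plus 0.2 uM RCC1 starts dissociation; FRET is recorded 45 min later.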
EPAC2 antagonist: EPAC2 (human) antagonism | Potency, µM (highest dose often 114 µM), inactives show at the highest dose activity, negative = inhibition, hits mostly inhibitors | AID 720708 | Q8WZA2 | EPAC2 GEF exchange of Rap1B-BODIPY-GDP, fluorescence | 360,000 compounds, 0.18% hits; further: on the % scale 0 is the no-effect control and ±100 the full control effect; nearly all actives have a fitted effect of over 45% in size
EPAC2 ag: EPAC2 (human) agonism; Q8WZA2; EPAC2 activation, biochemical qHTS; response scale: 100% = 6.5 mM cAMP response; Potency, µM (top dose mostly 154 µM), for inactives: top-dose activation, usual class: activators; 360,000 compounds, 0.079% hits; AID 720711; further: nearly all actives have a fitted effect of over 50% in size
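Setup: EPAC2 100 nM, labeled Rap1B complex 250 nM, free GDP 50 uM. Compound titrations pinned in, brief spin, 5 min room temperature incubation. Kinetic fluorescence read over 30 min, normalized to 6.5 mM cAMP.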
EPAC1 agonist: EPAC1 (human) agonism. 360,000 compounds, 0.073% hits. Potency, µM (titrated, usually from 154 µM), for the others: at the highest dose activation, hits mostly activators. O95398. EPAC1 agonist qHTS, biochemical assay; response scale: 100% = response to 6.5 mM cAMP. AID 720707; further: nearly all actives have a fitted effect of over 60% in size
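EPAC1 100 nM, Rap1B–BODIPY-GDP 250 nM, unlabeled GDP 50 uM; compound titration; 5 min RT; kinetic read ex480/em540 at 5-min intervals ×30 min; data normalized to 6.5 mM cAMP agonist control.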
* marks the source's active call; other numbers are inactive results; i = inactive; u = inconclusive; x = not tested or not shown; [ ] = remark or other dose. Unless noted, the call rests on the fitted dose curve; in most records, active means well fitted curve in the direction sought with a large enough effect; inconclusive means small, poorly fitted or top-dose-only effect, or another doubt; inactive means no such curve, though single readings can be large; an effect the other way counts as inactive or inconclusive. Potency means the concentration at half of the fitted maximal effect.

SMILES | EPAC1 antag | Rango complex inh | Rango release inh | EPAC2 antagonist | EPAC2 ag | EPAC1 agonist
CN=c1scc(-c2cccs2)n1/N=C/c1ccc(O)c(O)c1O | u | 1.1% | 1.1% | -3.5% | 0.4% | 8.8%
CC(C)N=c1scc(-c2ccco2)n1/N=C/c1ccc(O)c(O)c1 | u | -0.6% | 1.3% | -25.3% | u | 22.4%
CN=c1scc(C)n1/N=C/c1ccc(O)c(O)c1O | 50.1µM* | -1.8% | -6.6% | -7.3% | 12.8% | -0.1%
COCCN=c1scc(-c2ccco2)n1/N=C/c1ccc(O)c(O)c1O | 17.8µM* | u | u | 12.0% | -2.5% | 5.3%
C=CCN=c1scc(-c2ccco2)n1/N=C/c1ccc(O)c(O)c1O | 56.2µM* | -0.1% | -11.9% | -20.0% | 1.5% | 20.4%
CC(=O)Oc1ccc2c(c1)Oc1cc(OC(C)=O)ccc1C21OC(=O)c2ccccc21 | u | u | u | 39.8µM* | i | x
CC(=O)Oc1ccc2c(c1)C(=O)c1ccccc1CO2 | -3.8% | 1.9% | -1.5% | -0.9% | 9.3% | 2.9%
C=C(C)Cn1c(C)cc(C)c(S(=O)(=O)c2ccc(C)cc2)c1=O | -15.0% | -0.2% | -12.1% | 35.5µM* | 9.7% | -9.1%
CN1CCc2c(sc(NC(=O)CS(=O)(=O)c3ccc(F)cc3)c2C(N)=O)C1 | 8.8% | u | u | 9.9% | -0.6% | 4.6%
CC(=O)N1CCc2c(sc(NC(=O)CS(=O)(=O)c3ccc(F)cc3)c2C(N)=O)C1 | 0.6% | u | -25.5% | 5.1% | 3.0% | 126µM*
CCCN1C(=O)S/C(=C/c2ccc(N3CCOCC3)o2)C1=O | 42.2% | u | u | 22.1% | 112µM* | 79.4µM*
CC(C)(C)c1ccc(OCCC(=O)Nc2cccc(S(=O)(=O)N3CCOCC3)c2)cc1 | u | 3.4% | -2.8% | -23.1% | -6.6% | 13.0%
COc1cccc(C(C(=O)NCc2ccccc2)N2CCN(c3ccccc3F)CC2)c1OC (stereo unspecified) | -4.2% | x | x | -14.1% | 9.6% | 10.8%
CCOC(=O)c1[nH]c2ccc(C(=O)OC)cc2c1C(=O)OCC | -9.6% | -5.8% | -10.8% | -9.6% | 1.1% | -7.9%
CCCc1[nH]c2ccc(C#N)cc2c1CCC | -27.0% | -2.5% | 22.9% | 28.2µM* | -1.3% | -23.2%
N#Cc1ccc2[nH]cc(CCO)c2c1 | -4.2% | -4.5% | 0.8% | -0.8% | 7.0% | 14.4%
CCCc1[nH]c2ccc(C(=O)OC)cc2c1CCC | -20.5% | 9.7% | 4.1% | 28.2µM* | 15.6% | -8.6%
O=C(/C=C/c1ccco1)NCC1OCCc2ccccc21 (stereo unspecified) | 56.2µM* | u | -9.3% | 7.5% | -6.2% | -0.6%
C=CC(=O)NCC1OCCc2ccccc21 (stereo unspecified) | -5.5% | -4.2% | -0.5% | 13.9% | 9.9% | -12.3%
CCn1c(C)nc2cc(C(=O)NN=Cc3ccc([N+](=O)[O-])cc3)ccc21 | 1.3% | 0.1% | 8.5% | -5.3% | 1.5% | -2.0%

The last 5 records of the part before open the next one:
SMILES | EPAC1 antag | Rango complex inh | Rango release inh | EPAC2 antagonist | EPAC2 ag | EPAC1 agonist
N#Cc1ccc2[nH]cc(CCO)c2c1 | -4.2% | -4.5% | 0.8% | -0.8% | 7.0% | 14.4%
CCCc1[nH]c2ccc(C(=O)OC)cc2c1CCC | -20.5% | 9.7% | 4.1% | 28.2µM* | 15.6% | -8.6%
O=C(/C=C/c1ccco1)NCC1OCCc2ccccc21 (stereo unspecified) | 56.2µM* | u | -9.3% | 7.5% | -6.2% | -0.6%
C=CC(=O)NCC1OCCc2ccccc21 (stereo unspecified) | -5.5% | -4.2% | -0.5% | 13.9% | 9.9% | -12.3%
CCn1c(C)nc2cc(C(=O)NN=Cc3ccc([N+](=O)[O-])cc3)ccc21 | 1.3% | 0.1% | 8.5% | -5.3% | 1.5% | -2.0%
O=C(NC1CCCCC1)C(c1ccnc2ccccc12)n1c(=O)c(-c2ccco2)nc2ccccc21 (stereo unspecified) | -7.8% | x | x | 2.4% | 1.0% | -0.3%
CCOc1ccc(Nc2nc(N)nc(CN(C)C3CCCCC3)n2)cc1 | 31.0% | 58µM* | 1.5% | 15.7% | 4.4% | -0.1%
COc1ccc(Nc2nc(N)nc(CN(C)C3CCCCC3)n2)cc1 | 0.0% | -0.6% | 10.5% | -1.6% | 4.1% | 2.6%
Cc1c(C)c2c(C)nn(-c3ccccc3)c2[nH]c1=O | -7.6% | 1.6% | 8.6% | 7.7% | -1.6% | -7.8%
Nc1c2c(=O)[nH]c(O)cc2nn1-c1ccccc1 | 89.1µM* | 0.5% | -13.1% | 7.5% | 10.4% | 13.3%
CCOC(=O)c1c(-c2ccccc2)csc1NC(=O)C(C)NCc1ccco1 (stereo unspecified) | u | -0.8% | -12.6% | 44.7µM* | 1.3% | 16.1%
CC(=O)C1=C(C)OC2(O)c3ccccc3C(=O)C12O (stereo unspecified) | 79.4µM* | 1.2% | -7.8% | -24.5% | 20.8% | 3.6%
CCOC(=O)C1=C(C)OC2(O)c3ccccc3C(=O)C12O (stereo unspecified) | u | 0.4% | -10.2% | -27.3% | u | 1.3%
Nc1ccc(-c2c3ccc(=O)cc-3oc3cc(O)ccc23)cc1C(=O)O | i | u | u | i | 100µM* | 100µM*
COC(=O)c1cnc(Nc2nc(C(N)Cc3ccccc3)cs2)nc1C(F)(F)F (stereo unspecified) | -15.8% | x | x | -5.9% | -4.1% | -22.9%
COC(=O)[C@@]12C[C@@H](CC(=O)NCC34CC5CC(CC(C5)C3)C4)C(=O)N(Cc3ccco3)C1=CCC(C)(C)C2 | -17.4% | x | x | -18.7% | -0.1% | -13.2%
COC1OC(c2ccccc2)=C(c2cnc(N)nc2)c2ccc(F)cc21 (stereo unspecified) | -4.6% | x | x | 39.8µM* | 9.9% | 5.1%
Nc1ncc(-c2ccc(-c3ccccc3)cc2F)cc1-c1ccccc1F | -20.0% | x | x | -3.1% | 9.3% | 2.3%
Cc1ccc(N)cc1O | 6.7% | u | 23.1µM* | -10.3% | -1.1% | -7.6%
Nc1ccc(C(=O)O)c(O)c1 | -3.4% | -3.7% | 0.3% | 8.8% | -3.0% | -2.6%
O=C(Cn1ccc(=O)[nH]c1=O)c1ccc([N+](=O)[O-])o1 | 7.0% | x | x | 14.2% | u | 100µM*
O=C(CSc1ccccn1)N1CCN(c2ccc(Cl)cc2)CC1 | 1.8% | -0.2% | -1.8% | 3.0% | -2.6% | -4.0%
O=C(CSc1ccccn1)N1CCN(C(=O)CSc2ccccn2)CC1 | -15.9% | 65.1µM* | -4.4% | 3.9%[57.1 µM] | -13.1% | 19.5%
CC[C@@]1(c2ccccc2OC)ON(c2ccccc2C(F)(F)F)C1=O | -21.8% | 2.0% | 0.8% | 14.1µM* | 1.2% | -7.8%
CC1=CC=CN2C1=NC(=O)CC2(C)C(=O)N(CC(=O)NC1CCCC1)c1cc(C)cc(C)c1 (stereo unspecified) | 3.9% | 3.9% | 0.2% | 3.1% | 11.6% | 14.2%
CCCCCC(=O)Cc1cc(O)cc2c1C(=O)Oc1cc(O)c(C(=O)O)c(CCCCC)c1O2 | 39.8µM* | -2.1% | -2.7% | 15.8µM* | -9.0% | -10.3%
Cc1ccc(/C=c2\s/c(=C(/C#N)C(=O)N3CCCC3)n(Cc3ccco3)c2=O)s1 | 0.3% | u | 8.2µM* | -7.9% | 24.0% | 1.3%
CSCCC(NS(=O)(=O)c1ccc(C)cc1)C(=O)NC1CCCCC1 (stereo unspecified) | 5.0% | 2.8% | 6.2% | 13.5% | 2.8% | -5.0%
